# Reference: patent US7122533B2, “Cosalane compounds and methods for their use” (The United States of America as represented by the …, priority 1999, dated 2006)
# Molecular target: T1, human CCR1 (Homo sapiens, UniProt P32246)
# T1 construct: expressed in transfected cells; host or cells: HEK-293
# T1 sequence (P32246 1-355): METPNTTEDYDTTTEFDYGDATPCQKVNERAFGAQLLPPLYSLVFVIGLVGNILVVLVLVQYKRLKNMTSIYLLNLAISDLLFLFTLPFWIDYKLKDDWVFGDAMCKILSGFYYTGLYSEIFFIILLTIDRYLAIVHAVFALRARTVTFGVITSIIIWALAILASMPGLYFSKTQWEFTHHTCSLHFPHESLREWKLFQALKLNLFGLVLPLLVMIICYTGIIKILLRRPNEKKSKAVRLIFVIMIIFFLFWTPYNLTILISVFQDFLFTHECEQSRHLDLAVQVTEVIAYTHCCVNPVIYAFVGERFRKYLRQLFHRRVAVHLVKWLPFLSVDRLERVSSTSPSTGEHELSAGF
# Test: RANTES-induced CCR1/HEK-293 transfectant migration
# Type: cell-based
# Conditions: ≦ 5% standard error; NA = not active; read-out: IC50 (μM) RANTES-Induced CCRI/HEK Migration
# Protocol: Human embryonic kidney cells 293 (HEK-293) transfected to express human CCR1, CCR3, or CCR5 receptors were cultured in Dulbecco's Modified Eagles Medium (DMEM, Biowhiftaker, Walkersville, Md.) containing 10% Fetal Bovine Serum (FBS, Hyclone, Logan, Utah), 2 mM glutamine and 100 U/ml penicillin and streptomycin (Quality Biologicals, Gaithersburg, Md.). Peripheral blood mononuclear cells were isolated from fresh normal donor apheresis packs by centrifugation over Ficoll. Monocytes were enriched by 85–95% using percoll fractionation (Pharmacia, Piscataway, N.J.).
# The number of cells migrating to the chemokine mixtures was determined for binding media alone, and chemokine treated and untreated cells. HEK-293 cells transfected to express human CCR1, CCR3 or CCR5 receptors were resuspended in binding media at 7.5×10^5 cells/ml. Ten μm polyvinyl-free polycarbonate membranes (Neuro Probe) were treated with 47 ug/ml rat tail collagen type 1 (Collaborative Biomedical Products, Bedford, Md.) in RPMI-1640 overnight, dried and placed over the chemoattractants. The assembled chemotaxis chambers were incubated in a humidified CO2 incubator for 5.5–6 hours. […] The stained and dried membrane was mounted and the cells on the underside of the membrane were counted at 200× magnification. […]
smiles,measurement,value
CSCC[C@H](NC(=O)c1cc(C(=CCC[C@H]2CC[C@@]3(C)C(CCC4C3CC[C@@]3(C)C4CC[C@@H]3C(C)CCCC(C)C)C2)c2cc(Cl)c(O)c(C(=O)N[C@@H](CCSC)C(=O)O)c2)cc(Cl)c1O)C(=O)O (stereo partly shown) [Compound 15],IC50,12.7 µM
